{"sequences": {"note": "Protein sequences, listed by entry. Tags and fused reporters are not part of them.", "UniProt P10275, whole entry T878A": "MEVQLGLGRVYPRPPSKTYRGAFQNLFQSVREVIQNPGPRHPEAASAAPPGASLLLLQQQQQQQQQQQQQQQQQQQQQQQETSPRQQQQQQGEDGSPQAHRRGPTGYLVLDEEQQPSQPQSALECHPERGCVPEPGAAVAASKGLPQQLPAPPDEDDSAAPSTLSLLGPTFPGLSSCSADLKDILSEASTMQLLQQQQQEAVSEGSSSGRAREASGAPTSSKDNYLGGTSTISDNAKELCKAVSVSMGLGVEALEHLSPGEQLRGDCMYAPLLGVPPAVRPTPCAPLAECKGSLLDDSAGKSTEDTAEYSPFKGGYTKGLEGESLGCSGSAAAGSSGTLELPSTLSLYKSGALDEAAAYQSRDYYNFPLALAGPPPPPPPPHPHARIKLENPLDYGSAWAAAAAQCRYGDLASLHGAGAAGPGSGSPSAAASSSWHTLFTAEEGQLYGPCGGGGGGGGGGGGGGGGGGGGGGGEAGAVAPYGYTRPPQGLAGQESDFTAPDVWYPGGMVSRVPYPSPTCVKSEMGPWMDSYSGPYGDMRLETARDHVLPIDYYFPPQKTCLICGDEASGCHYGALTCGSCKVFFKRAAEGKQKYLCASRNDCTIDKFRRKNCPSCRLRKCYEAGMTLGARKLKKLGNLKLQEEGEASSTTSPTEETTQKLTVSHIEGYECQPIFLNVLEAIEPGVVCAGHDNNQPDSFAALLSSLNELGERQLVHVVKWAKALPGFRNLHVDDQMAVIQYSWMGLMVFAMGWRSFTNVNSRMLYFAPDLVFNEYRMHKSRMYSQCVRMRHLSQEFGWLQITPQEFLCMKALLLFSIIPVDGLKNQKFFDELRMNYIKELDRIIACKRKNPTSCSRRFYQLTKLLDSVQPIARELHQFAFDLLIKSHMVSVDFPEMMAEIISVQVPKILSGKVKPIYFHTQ"}, "source": "patent US20240376091A1", "about": "“THIADIAZOLEAMIDE DERIVATIVES AND THEIR APPLICATIONS” (ZHEJIANG UNIVERSITY, priority 2021, published 2024)", "molecular_target": "AR (Homo sapiens, UniProt P10275, T878A)", "test": "AR transcriptional activity, LNCaP-ARR2PB-eGFP reporter cells", "format": "cell-based", "details": "read-out: IC50 AR transcriptional activities, 5 nM DHT, 72 hours", "data": [{"smiles": "Cc1oc(-c2cccc(C(F)(F)F)c2)cc1C(=O)Nc1nc(CN2CCCCC2)ns1", "values": [{"measurement": "IC50", "result": 290, "unit": "nM"}]}]}
